Apparent affinities of Ab-14 variants for a coronavirus HR2 peptide

The target is the same throughout: PDVDLGDISGINAS, from the HR2 region of SARS-CoV-2 spike.

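The parent was found by panning a naive human phage display library on the peptide. This is the validation round: designs drawn from the data on random variants, tested in the same kind of assay. Several design methods are mixed in this list. AlphaSeq pools MATa yeast showing the antibodies with MATalpha yeast showing the peptide. Mating (16 h, 30 °C) was followed by selection of diploids and sequencing of their barcodes. Read counts were normalised to the haploid input and turned into Kd by a linear fit to BCL2-family pairs of known affinity, for each replicate. There are six technical replicates.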

Parent: Ab-14, a human scFv built as VH, the linker GGGGSGGGGSGGGGS, VL. Only the CDRs of the light chain vary.
VH: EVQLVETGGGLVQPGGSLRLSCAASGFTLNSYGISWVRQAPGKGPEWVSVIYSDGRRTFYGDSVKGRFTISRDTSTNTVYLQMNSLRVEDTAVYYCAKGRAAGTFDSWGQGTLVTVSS
VL: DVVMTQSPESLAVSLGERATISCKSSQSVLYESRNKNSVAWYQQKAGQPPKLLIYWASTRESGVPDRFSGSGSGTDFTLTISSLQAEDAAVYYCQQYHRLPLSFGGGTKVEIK

Each variant is given by its three light chain CDRs, as the data file delimits them; those of the parent are KSSQSVLYESRNKNSVA, WASTRES, QQYHRLPLS.
The read-out is the apparent dissociation constant on a log10 scale (nM): the lower, the stronger.
The mean shown is taken over the replicates in which the pair was detected.
A pair that was not seen in that replicate is written "ND"; this usually means weak binding, but a binder can also be missed.
The authors averaged sequences with at least three values out of six and counted those with two or fewer as poor binders.
The range of this assay differs from that of the first round, and the authors advise against merging the two.
As a blank, each scFv also met three strains without target: over all light chain designs, 4% of these pairings were detected, typically at 2.64 and seldom below 1.59. The control count says in how many pairings with the empty strains this scFv gave a signal, with their mean in brackets.

{"CDR-L1": "KIGMTLNELMIKKNNVA", "CDR-L2": "DLVMREN", "CDR-L3": "QQYHRLPLS", "log10 Kd, replicates": "0.30 0.09 0.12 -0.03 0.22 0.23", "log10 Kd (nM), mean": "0.16", "empty controls": "3/18 (2.71)"}
{"CDR-L1": "KMSQSVDGLDRNKNSVA", "CDR-L2": "NASTREM", "CDR-L3": "QQYHRLPLS", "log10 Kd, replicates": "0.26 0.29 0.27 0.04 0.31 0.47", "log10 Kd (nM), mean": "0.27", "empty controls": "4/18 (2.81)"}
{"CDR-L1": "TISNSFMMENQFKNSVA", "CDR-L2": "QASTRLN", "CDR-L3": "QCYDRLPLS", "log10 Kd, replicates": "0.93 0.39 0.85 1.11 0.77 0.45", "log10 Kd (nM), mean": "0.75", "empty controls": "0/18"}
{"CDR-L1": "KIQDNLGTLMEQINSVA", "CDR-L2": "ASEEIVD", "CDR-L3": "QSYFRLPLI", "log10 Kd, replicates": "2.18 1.27 ND 1.35 1.47 1.58", "log10 Kd (nM), mean": "1.57", "empty controls": "1/18 (0.74)"}
{"CDR-L1": "KLTEAMASWTGARHNIA", "CDR-L2": "DRTVTAP", "CDR-L3": "QQYSRLPIT", "log10 Kd, replicates": "-0.01 0.38 0.16 -0.08 0.21 0.31", "log10 Kd (nM), mean": "0.16", "empty controls": "2/18 (2.61)"}
{"CDR-L1": "KGMGSMLYESRNDNSVA", "CDR-L2": "NASQRES", "CDR-L3": "QQYHRLPLS", "log10 Kd, replicates": "0.51 0.34 0.44 0.35 0.37 0.46", "log10 Kd (nM), mean": "0.41", "empty controls": "1/18 (2.60)"}
{"CDR-L1": "HSSPSVGYESRNKNSVA", "CDR-L2": "NASTRES", "CDR-L3": "QQYHRLPLS", "log10 Kd, replicates": "ND ND ND ND ND ND", "log10 Kd (nM), mean": "ND", "empty controls": "0/18"}
{"CDR-L1": "KLGSTVGYESRNKSRVA", "CDR-L2": "DNSTRES", "CDR-L3": "QQYDRLPLS", "log10 Kd, replicates": "ND 1.98 ND ND 2.91 ND", "log10 Kd (nM), mean": "2.44", "empty controls": "0/18"}
{"CDR-L1": "ALRGVGYDEQVKHSAIA", "CDR-L2": "DAEHANQ", "CDR-L3": "QQYSMLPLS", "log10 Kd, replicates": "0.73 0.42 0.44 0.31 1.54 1.07", "log10 Kd (nM), mean": "0.75", "empty controls": "0/18"}
{"CDR-L1": "KFSISGLYESRMKNSVA", "CDR-L2": "EASTRES", "CDR-L3": "QQYHRLPLS", "log10 Kd, replicates": "0.16 0.16 0.04 0.06 0.09 0.47", "log10 Kd (nM), mean": "0.16", "empty controls": "2/18 (2.72)"}
{"CDR-L1": "KSAYSELYESANKNSVA", "CDR-L2": "SASTRSS", "CDR-L3": "QQYHRLPLS", "log10 Kd, replicates": "0.55 0.35 0.38 0.20 0.13 0.33", "log10 Kd (nM), mean": "0.32", "empty controls": "3/18 (2.65)"}
{"CDR-L1": "KLSQSMLYESRNKNNVA", "CDR-L2": "HASTRES", "CDR-L3": "QQYHRLPLS", "log10 Kd, replicates": "-0.26 -0.50 -0.49 -0.49 -0.65 -0.55", "log10 Kd (nM), mean": "-0.49", "empty controls": "1/18 (1.90)"}
{"CDR-L1": "KLSQSDGYESRNFNSVA", "CDR-L2": "NASTRSH", "CDR-L3": "QQYHRLPLS", "log10 Kd, replicates": "0.20 0.18 -0.05 0.06 0.16 0.04", "log10 Kd (nM), mean": "0.10", "empty controls": "1/18 (3.04)"}
{"CDR-L1": "KSSQSVLYESMNKNSVA", "CDR-L2": "WASTRES", "CDR-L3": "QQYHRLPLF", "log10 Kd, replicates": "ND ND ND 1.99 ND 2.42", "log10 Kd (nM), mean": "2.21", "empty controls": "0/18"}
{"CDR-L1": "KLPQSVWYESRNKNSVA", "CDR-L2": "SASTRES", "CDR-L3": "QQYHRLPLS", "log10 Kd, replicates": "-0.07 -0.01 0.05 -0.07 -0.06 -0.02", "log10 Kd (nM), mean": "-0.03", "empty controls": "0/18"}
{"CDR-L1": "KASPSEEYESRMKNSVA", "CDR-L2": "MASTRYE", "CDR-L3": "QQYHRLPLS", "log10 Kd, replicates": "1.39 1.01 1.65 1.66 1.19 1.38", "log10 Kd (nM), mean": "1.38", "empty controls": "0/18"}
{"CDR-L1": "KLSQSELYEDRVKNSVA", "CDR-L2": "GASTRES", "CDR-L3": "QQYHRLPLS", "log10 Kd, replicates": "0.03 -0.07 0.29 0.04 0.08 0.00", "log10 Kd (nM), mean": "0.06", "empty controls": "2/18 (2.70)"}
{"CDR-L1": "KSQQSWGYESRNKNSVA", "CDR-L2": "GASTRES", "CDR-L3": "QQYHRLPLS", "log10 Kd, replicates": "0.57 0.19 0.18 0.15 0.22 0.21", "log10 Kd (nM), mean": "0.25", "empty controls": "0/18"}
{"CDR-L1": "KLEQSFLYESRNKNSVA", "CDR-L2": "NASTRES", "CDR-L3": "QQYHRLPLS", "log10 Kd, replicates": "-0.17 -0.28 -0.24 -0.48 -0.49 -0.24", "log10 Kd (nM), mean": "-0.32", "empty controls": "1/18 (3.26)"}
{"CDR-L1": "KHLQSVLYETRNKNSVA", "CDR-L2": "WASTRES", "CDR-L3": "QQYKRWPLI", "log10 Kd, replicates": "ND 1.85 2.68 1.60 2.14 2.33", "log10 Kd (nM), mean": "2.12", "empty controls": "2/18 (2.05)"}
{"CDR-L1": "KMSQSVDGLDRNWNSVA", "CDR-L2": "QASTREM", "CDR-L3": "QQYHRLPLS", "log10 Kd, replicates": "-0.02 -0.07 -0.14 0.03 -0.07 0.01", "log10 Kd (nM), mean": "-0.04", "empty controls": "1/18 (2.82)"}
{"CDR-L1": "SVTRETDGNGLKMNSVA", "CDR-L2": "DAAEAMT", "CDR-L3": "QQYQRLPLT", "log10 Kd, replicates": "0.62 0.16 0.57 0.07 -0.24 0.27", "log10 Kd (nM), mean": "0.24", "empty controls": "1/18 (1.98)"}
{"CDR-L1": "KLRMLTLTGGYFKNSVA", "CDR-L2": "QAETREN", "CDR-L3": "QSYHRLPLS", "log10 Kd, replicates": "2.47 1.66 1.49 1.31 1.36 1.42", "log10 Kd (nM), mean": "1.62", "empty controls": "0/18"}
{"CDR-L1": "MIAAGLRGVGRNKNSVA", "CDR-L2": "NAQMRES", "CDR-L3": "QHYHRLPLS", "log10 Kd, replicates": "ND 1.72 2.10 2.42 3.63 2.47", "log10 Kd (nM), mean": "2.47", "empty controls": "1/18 (3.50)"}
{"CDR-L1": "KSNQSVLYESRNKNSVA", "CDR-L2": "WASTRES", "CDR-L3": "QQYVRLPLS", "log10 Kd, replicates": "1.52 1.73 ND 3.11 1.67 2.33", "log10 Kd (nM), mean": "2.07", "empty controls": "0/18"}
{"CDR-L1": "KLDQQTLYESRNKNSVA", "CDR-L2": "WASTREE", "CDR-L3": "QQYHRLPLS", "log10 Kd, replicates": "0.59 0.74 0.85 0.56 0.76 0.62", "log10 Kd (nM), mean": "0.69", "empty controls": "0/18"}
{"CDR-L1": "TLYGLSMSMAKNKNNVA", "CDR-L2": "EMTTREK", "CDR-L3": "QQYDRLPLM", "log10 Kd, replicates": "1.28 0.69 0.78 0.84 0.94 0.83", "log10 Kd (nM), mean": "0.90", "empty controls": "0/18"}
{"CDR-L1": "KLSQSELYESRNKNSVA", "CDR-L2": "EASQRES", "CDR-L3": "QDYHRLPLS", "log10 Kd, replicates": "-0.03 0.10 -0.27 -0.22 -0.22 0.01", "log10 Kd (nM), mean": "-0.11", "empty controls": "0/18"}

Repeated from above, the 3 best binders with a signal in all replicates:

{"CDR-L1": "KLSQSMLYESRNKNNVA", "CDR-L2": "HASTRES", "CDR-L3": "QQYHRLPLS", "log10 Kd, replicates": "-0.26 -0.50 -0.49 -0.49 -0.65 -0.55", "log10 Kd (nM), mean": "-0.49", "empty controls": "1/18 (1.90)"}
{"CDR-L1": "KLEQSFLYESRNKNSVA", "CDR-L2": "NASTRES", "CDR-L3": "QQYHRLPLS", "log10 Kd, replicates": "-0.17 -0.28 -0.24 -0.48 -0.49 -0.24", "log10 Kd (nM), mean": "-0.32", "empty controls": "1/18 (3.26)"}
{"CDR-L1": "KLSQSELYESRNKNSVA", "CDR-L2": "EASQRES", "CDR-L3": "QDYHRLPLS", "log10 Kd, replicates": "-0.03 0.10 -0.27 -0.22 -0.22 0.01", "log10 Kd (nM), mean": "-0.11", "empty controls": "0/18"}

Values reported by Li et al. 2023, doi:10.1038/s41467-023-39022-2 (FLAb copy).